Measurements: PubChem BioAssay AID720641 (ICCB-Longwood Screening Facility, Harvard Medical School, 2013)
The list shows a part of the results, in another mix than the full data. Some of these compounds have results that are not shown, active ones among them. Calls of active or inactive are those of the source.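 Rule for the calls: active = relative growth at most 50% at the other temperature and 20+ points below 30 °C, or under 10% at both; inactive = the rest, inconclusive results apart.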

test: S. aureus growth inhibition at 42 and 30 °C, primary screen, LtaS inhibitor project, RN4220, two temperatures (AID 720641); conditions: OD600, 20 h, 42 °C, active compounds read low

| SMILES | relative growth |
| --- | --- |
| O=C(NCC1(N2CCCCC2)CCCCC1)c1ccc2c(c1)OCCO2 | inactive: 87.7% |
| CC(C)Oc1ccc(C(=O)NCC2(N(C)C)CCCCC2)cc1 | inactive: 104% |
| COc1cc(C(=O)NCC2(N(C)C)CCCCC2)cc(OC)c1OC | inactive: 116% |
| Cc1cccc(C(=O)NCC2(N(C)C)CCCCC2)c1 | inactive: 113% |
| CN1C2CCC1CC(OC(=O)C(O)(c1ccccc1)c1ccccc1)C2 (centres undefined) | inactive: 104% |
| CC(C)COc1ccc(C(=O)NCC2(N(C)C)CCCCC2)cc1 | inactive: 91% |
| O=C(OC1CN2CCC1CC2)C(CO)(c1ccccc1)c1ccccc1 (centres undefined) | inactive: 106% |
| COc1cccc(C(=O)NCC2(N3CCOCC3)CCCCC2)c1 | inactive: 114% |
| COc1ccc(C(=O)NCC2(N(C)C)CCCCC2)cc1Cl | inactive: 115% |
| CN(C)C1(CNC(=O)c2ccncc2)CCCCC1 | inactive: 114% |
| N#CC(C#N)=Cc1ccccc1 | inactive: 52.5% |
| CCOc1cccc(C(=O)NCC2(N(C)C)CCCCC2)c1 | inactive: 96.1% |
| COc1ccc(OC)c(C=C(C#N)C#N)c1 | inactive: 94.7% |
| CCCCOc1ccccc1C(=O)NCC1(N(C)C)CCCCC1 | inactive: 108% |
| CN(C)C1(CNC(=O)c2ccccc2[N+](=O)[O-])CCCCC1 | inactive: 96.6% |
| CN(C)c1ccc(C(=O)NCC2(N(C)C)CCCCC2)cc1 | inactive: 75.7% |
| CN(C)C1(CNC(=O)c2ccccc2F)CCCCC1 | inactive: 100% |
| CN(C)C1(CNC(=O)c2cccc(Cl)c2)CCCCC1 | inactive: 113% |
| O=C(NCC1(N2CCOCC2)CCCCC1)c1cnc(Cl)c(Cl)c1 | inactive: 83.1% |
